The source of these data is patent US9950026B2, “Methods for reducing oxidative damage” (Cornell Research Foundation, Inc., priority 2004, dated 2018).

Where no end group is shown, it is not given here. [ ]: non-standard residue; d: D form.

The nature of experiment [1]: Linoleic acid peroxidation induced by ABAP (conjugated dienes). The settings on record: peptides 100 μM.
In experiment [2] the test system is Human LDL (low density lipoprotein). Briefly: LDL oxidation induced by CuSO4 (conjugated dienes). It is filed as biochemical. The settings on record: peptides 100 μM. As for the experimental part: Human LDL (low density lipoprotein) was prepared fresh from stored plasma. LDL oxidation was induced catalytically by the addition of […] CuSO4, and the formation of conjugated dienes was monitored at […] for 5 h at 37° C. (B. Moosmann and C. Behl, Mol Pharmacol., 61, 260-268 (2002)).

A[dR]FK-NH2 [SS-22]: in experiment [1], the “rate of linoleic acid peroxidation (slope of diene formation)” value (from here on “rate … (slope of diene formation)”) is “With the exception of”.

For Cyclohexyl-D-Arg-Phe-Lys-NH2 [SS-21], the “rate … (slope of diene formation)” value in experiment [1] is listed as “With the exception of”.

For the substance “Dmt-D-Arg-Phe-Ahp(2-aminoheptanoic acid)-NH2 [SS-32]”, the “rate … (slope of diene formation)” value in experiment [1] is “reduced the rate of linoleic acid peroxidation”. Moreover, the “rate of LDL oxidation (rate of formation of conjugated dienes)” value in experiment [2] is recorded as “reduced rate of LDL oxidation”.
